# Binding of CDR-mutated scFvs to a peptide of the spike HR2 region

From the AlphaSeq antibody data of Engelhart et al. 2022 (doi:10.1038/s41597-022-01779-4), copy in the FLAb collection.

Target peptide (SARS-CoV-2 spike, HR2 region): PDVDLGDISGINAS

Ab-14 is the parent antibody, in scFv form: VH, then a (GGGGS)3 linker, then VL. The light chain is unchanged in all variants.
VH: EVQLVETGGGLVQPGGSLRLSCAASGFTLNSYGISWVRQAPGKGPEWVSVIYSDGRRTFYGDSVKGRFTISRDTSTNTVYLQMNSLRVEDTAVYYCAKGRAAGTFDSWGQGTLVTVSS
VL: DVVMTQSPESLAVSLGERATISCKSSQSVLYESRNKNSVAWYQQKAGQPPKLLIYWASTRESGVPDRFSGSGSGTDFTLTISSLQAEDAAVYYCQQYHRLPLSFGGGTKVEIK

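The starting antibody came from a phage panning campaign against this peptide. Library AAYL49 holds single substitutions and randomly drawn double and triple substitutions in the CDRs. The assay is AlphaSeq: two haploid yeast populations carry antibody and antigen on their surface. The frequency of each diploid, read from paired DNA barcodes, reflects how well the two displayed proteins bind. Each replicate has its own calibration line, from reference interactions of the BCL2 family. Each pool was mated in three replicate cultures.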

Positions count from residue 1 of the parent VH; N30A puts A in place of N.
Every variant below is changed at N30 of the VH (sequential numbering).
Numbers give log10(Kd / nM), so 0 is 1 nM and 3 is 1 µM. Smaller is tighter.
The mean shown is taken over the replicates in which the pair was detected.
Where no diploid with the target was found in any replicate, the entry reads "no signal": below detection, most likely a poor binder, though not proof of it.
The list is sorted by this average, lowest first, undetected variants last.
Three control strains display no target. For library AAYL49, 15% of the pairings with them gave a signal, with a median of 4.06 and one signal in twenty below 2.83, so weak values seen in few replicates may be background.

- N30A S63E A101T -> 0.66 (3 of 3 replicates)
- N30K -> 0.95 (3 of 3 replicates)
- N30E S63N -> 1.02 (3 of 3 replicates)
- F27N N30Y S31D -> 1.39 (3 of 3 replicates)
- N30F S31M A101S -> 2.19 (3 of 3 replicates)
- N30V -> 2.23 (3 of 3 replicates)
- T28A N30G V50P -> 2.49 (1 of 3 replicates)
- N30Y I34M R100K -> 2.75 (3 of 3 replicates)
- N30S S31Q -> 2.86 (3 of 3 replicates)
- N30P A101C F105L -> 3.01 (3 of 3 replicates)
- N30R S107D -> 3.52 (3 of 3 replicates)
- N30C I51L R56E -> 3.59 (2 of 3 replicates)
- N30C V50A F59L -> 3.77 (1 of 3 replicates)
- T28W N30R D106N -> 4.15 (1 of 3 replicates)
- N30I I51Y G103F -> 4.51 (1 of 3 replicates)
- F27Q N30G D54W -> 4.52 (2 of 3 replicates)
- G26C N30V S107I -> 4.55 (2 of 3 replicates)
- N30G V50K I51R -> 4.98 (1 of 3 replicates)
- G26I T28C N30V -> 5.55 (1 of 3 replicates)
- N30A S35Y I51H -> no signal (0 of 3 replicates)
- G26D N30Q S35G -> no signal (0 of 3 replicates)
- N30I G55C V64K -> no signal (0 of 3 replicates)
- N30V R57D Y60C -> no signal (0 of 3 replicates)
- F27Q N30P T104Y -> no signal (0 of 3 replicates)
- N30I S35M G103N -> no signal (0 of 3 replicates)
- L29A N30Y -> no signal (0 of 3 replicates)
- G26R N30M I51R -> no signal (0 of 3 replicates)
- N30E R57V A102K -> no signal (0 of 3 replicates)
- N30K S31V S107P -> no signal (0 of 3 replicates)
- F27N N30H S107F -> no signal (0 of 3 replicates)
- N30S Y32P G99Y -> no signal (0 of 3 replicates)
- N30C R57K -> no signal (0 of 3 replicates)
- N30M S31V T58D -> no signal (0 of 3 replicates)
- N30C Y60K G99S -> no signal (0 of 3 replicates)
- N30I S35W G99W -> no signal (0 of 3 replicates)
- N30I G33F -> no signal (0 of 3 replicates)

Again, the first 6 entries without any signal:

changes,"mean, log10 nM",replicates with signal
N30A S35Y I51H,no signal,0/3
G26D N30Q S35G,no signal,0/3
N30I G55C V64K,no signal,0/3
N30V R57D Y60C,no signal,0/3
F27Q N30P T104Y,no signal,0/3
N30I S35M G103N,no signal,0/3